The record followed here is patent US8883850B2, “Naphthalene carboxamide M1 receptor positive allosteric modulators” (Merck Sharp & Dohme Corp., priority 2010, dated 2014).

The chains behind the UniProt entries cited, without tags or fusion partners.
UniProt P11229, whole entry: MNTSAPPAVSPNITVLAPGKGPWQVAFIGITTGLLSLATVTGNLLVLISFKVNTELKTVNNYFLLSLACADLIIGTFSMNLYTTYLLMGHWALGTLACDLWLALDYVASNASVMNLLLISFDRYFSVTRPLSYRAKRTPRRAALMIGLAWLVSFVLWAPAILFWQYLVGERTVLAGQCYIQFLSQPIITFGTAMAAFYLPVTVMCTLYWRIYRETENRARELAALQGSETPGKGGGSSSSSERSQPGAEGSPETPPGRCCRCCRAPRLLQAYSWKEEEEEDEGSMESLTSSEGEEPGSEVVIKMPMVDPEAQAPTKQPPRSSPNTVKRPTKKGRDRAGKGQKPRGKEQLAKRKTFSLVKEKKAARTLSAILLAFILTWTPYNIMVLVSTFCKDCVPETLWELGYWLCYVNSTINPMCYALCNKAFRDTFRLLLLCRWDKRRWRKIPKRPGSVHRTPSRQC

In the assay the target is acetylcholine muscarinic M1 receptor (Homo sapiens, UniProt P11229). Kind of assay: M1 FLIPR assay: intracellular calcium, potentiation of acetylcholine EC20. As to conditions: read-out: M1 IP Value, inflection point value from FLIPR assay, CHOnfat/hM1 cells, 4 min pre-incubation, then acetylcholine EC20 (3 nM final).

Each structure is given as a SMILES string. Read-outs that look alike come from different tables or passages of the source.

On to `CCNC(=O)Oc1c(C(=O)N[C@H]2CCCC[C@@H]2O)cc(Cc2ccc(Cl)nc2)c2ccccc12`, for which the EC50 (Table 2, Formula (IV)) stood at 5.02 µM. Same read-out and setting: the result for `O=C(N[C@H]1CCCC[C@@H]1O)c1cc(Cc2ccc(Cl)nc2)c2ccccc2c1O` reads 9.08 µM.

For `COc1c(C(=O)O)cc(CN2CCC(C#N)(c3cc(C)ccn3)CC2)c2ccccc12`, the EC50 (Table 1, Formula (III)) worked out at 5.38 µM.
